Test results reported in ChEMBL document CHEMBL3232862, “Optimization of chemical functionalities of indole-2-carboxamides to improve allosteric parameters for the cannabinoid receptor 1 (CB1)” (J Med Chem, 2014).
Activity calls are given as the source filed them. No cut-off for these calls is given here.

Amino acid sequences for entries named in this document (tags omitted).
UniProt P21554, whole entry: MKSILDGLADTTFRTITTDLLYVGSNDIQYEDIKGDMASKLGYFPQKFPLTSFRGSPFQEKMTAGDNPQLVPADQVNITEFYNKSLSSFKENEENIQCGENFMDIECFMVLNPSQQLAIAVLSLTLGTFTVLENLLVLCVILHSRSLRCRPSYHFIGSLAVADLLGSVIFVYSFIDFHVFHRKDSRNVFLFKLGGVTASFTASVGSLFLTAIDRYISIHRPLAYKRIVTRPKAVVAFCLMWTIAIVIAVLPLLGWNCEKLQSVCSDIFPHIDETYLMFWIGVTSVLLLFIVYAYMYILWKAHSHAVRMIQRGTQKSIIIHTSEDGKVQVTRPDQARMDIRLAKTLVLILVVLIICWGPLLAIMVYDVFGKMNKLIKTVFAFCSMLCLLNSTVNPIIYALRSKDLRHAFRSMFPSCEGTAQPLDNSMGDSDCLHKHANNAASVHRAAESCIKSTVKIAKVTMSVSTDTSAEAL

Biological target: Cannabinoid receptor 1 (Homo sapiens) (UniProt P21554)
Assay: Positive allosteric modulation of cannabinoid CB1 receptor (unknown origin) expressed in HEK293 cells assessed as effect on ERK1/2 phosphorylation at 10 uM by Western blot analysis in absence of siRNA targeting beta-arrestin 1
Type: cell-based

Q: Which Activity does the source give for `CCCCCc1c(C(=O)NCCc2ccc(N3CCCCC3)cc2)[nH]c2ccc(Cl)cc12` here?
A: The Activity was “Active”.
